The target in one test is Melanocortin receptor 4 (Homo sapiens, UniProt P32245). The test can be described thus: Inhibition of [125I]NDP-alpha-MSH binding to melanocortin-4 receptor expressed in HEK293 cells. In kind it is cell-based.
The next test deals with Melanocortin receptor 3 (Homo sapiens, UniProt P41968). The test can be described thus: Inhibition of [125I]-NDP-alpha-MSH binding to melanocortin-3 receptor expressed in HEK293 cells. In kind it is cell-based.

Amino acid sequences for entries named in this document (tags omitted). A change or cut given only in a name is not applied to a line headed by its entry.
UniProt P32245, whole entry: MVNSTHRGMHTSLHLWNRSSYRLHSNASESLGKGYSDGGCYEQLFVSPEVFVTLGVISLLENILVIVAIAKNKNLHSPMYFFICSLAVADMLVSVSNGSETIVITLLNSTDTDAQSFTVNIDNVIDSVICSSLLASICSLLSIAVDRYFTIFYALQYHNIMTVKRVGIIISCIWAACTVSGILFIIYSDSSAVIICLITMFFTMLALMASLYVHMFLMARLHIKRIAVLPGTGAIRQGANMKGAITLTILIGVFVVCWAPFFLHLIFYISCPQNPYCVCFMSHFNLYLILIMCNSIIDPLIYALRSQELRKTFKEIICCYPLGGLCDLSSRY
UniProt P41968: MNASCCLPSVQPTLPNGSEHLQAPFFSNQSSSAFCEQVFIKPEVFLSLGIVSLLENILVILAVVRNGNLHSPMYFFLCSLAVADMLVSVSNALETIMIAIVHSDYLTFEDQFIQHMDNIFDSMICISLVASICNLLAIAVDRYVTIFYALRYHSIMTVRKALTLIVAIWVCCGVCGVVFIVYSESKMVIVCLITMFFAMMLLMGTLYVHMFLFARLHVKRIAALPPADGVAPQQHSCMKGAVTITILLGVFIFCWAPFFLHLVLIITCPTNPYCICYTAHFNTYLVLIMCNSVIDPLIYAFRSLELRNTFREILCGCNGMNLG

`CC(=O)N[C@@H](CCCNC(=N)N)C(=O)N[C@H]1CSSC[C@@H](C(N)=O)NC(=O)[C@H](Cc2c[nH]c3ccccc23)NC(=O)[C@H](CCCNC(=N)N)NC(=O)[C@@H](Cc2ccccc2)NC(=O)[C@H](Cc2c[nH]cn2)NC(=O)[C@H](CCC(=O)O)NC1=O`: at Melanocortin receptor 4, the Ki – broadly, the equilibrium dissociation constant of an inhibitor or competing ligand from its target – turned out to be 0.44 nM.
On to `CC(=O)N[C@@H](Cc1ccc(O)cc1)C(=O)N[C@@H](CCCNC(=N)N)C(=O)N[C@H]1CSSC[C@@H](C(N)=O)NC(=O)[C@H](Cc2c[nH]c3ccccc23)NC(=O)[C@H](CCCNC(=N)N)NC(=O)[C@@H](Cc2ccccc2)NC(=O)[C@H](Cc2c[nH]cn2)NC(=O)[C@H](CCC(=O)O)NC1=O`, for which, at Melanocortin receptor 3, affinity was put at a Ki of 55 nM.
The compound `CC(=O)N[C@@H](Cc1ccc(O)cc1)C(=O)N[C@@H](CCCCN)C(=O)N[C@H]1CSSC[C@@H](C(N)=O)NC(=O)[C@H](Cc2c[nH]c3ccccc23)NC(=O)[C@H](CCCNC(=N)N)NC(=O)[C@@H](Cc2ccccc2)NC(=O)[C@H](Cc2c[nH]cn2)NC(=O)[C@H](CCC(=O)O)NC1=O` gave an inhibitory constant (Ki) at Melanocortin receptor 3 of 98 nM.
